Assay: Pharmacodynamic assay in animals (serum calcium, Arsenazo III calcium assay kit)
Format: in vivo
Details: male C57 mice, intraperitoneal injection, 20 nmol/kg and/or 10 nmol/kg
Protocol: Eight-week-old male C57 mice were selected for the experiment. The fusion proteins prepared in Examples 1-11 and the control TP were separately diluted with PBS to the concentrations required for the assay. The fusion proteins and TP were administered via intraperitoneal injection at two dosages: 20 nmol/kg and/or 10 nmol/kg, with 3 mice per group. Animals in the blank control group (KB) received an equal volume of normal saline via intraperitoneal injection. Blood samples were collected at 0 h (before injection) and at 1 h, 3 h, 6 h, 24 h, 48 h, and 72 h after injection. The blood samples were allowed to stand at 4°C for 1 hour, and the centrifuged at 4000 rpm for 5 minutes. The serum was harvested after centrifugation. The calcium ion concentration in the mouse serum was quantitatively determined using an Arsenazo III calcium assay kit (Zhongshan Biogentech, China) according to the manufacturer's instructions.

In the case of `CC[C@H](C)[C@H](NC(=O)[C@H](CCC(=O)O)NC(=O)[C@H](CO)NC(=O)[C@@H](NC(=O)[C@@H](N)CO)C(C)C)C(=O)N[C@@H](CCC(N)=O)C(=O)N[C@@H](CC(C)C)C(=O)N[C@@H](CCSC)C(=O)N[C@@H](Cc1c[nH]cn1)C(=O)N[C@@H](CC(N)=O)C(=O)N[C@@H](CC(C)C)C(=O)NCC(=O)N[C@@H](CCCCN)C(=O)N[C@@H](Cc1c[nH]cn1)C(=O)N[C@@H](CC(C)C)C(=O)N[C@@H](CC(N)=O)C(=O)N[C@@H](CO)C(=O)N[C@@H](CCSC)C(=O)N[C@@H](CCC(=O)O)C(=O)N[C@@H](CCCNC(=N)N)C(=O)N[C@H](C(=O)N[C@@H](CCC(=O)O)C(=O)N[C@@H](Cc1c[nH]c2ccccc12)C(=O)N[C@@H](CC(C)C)C(=O)N[C@@H](CCCNC(=N)N)C(=O)N[C@@H](CCCCN)C(=O)N[C@@H](CCCCN)C(=O)N[C@@H](CC(C)C)C(=O)N[C@@H](CCC(N)=O)C(=O)N[C@@H](CC(=O)O)C(=O)N[C@H](C(=O)N[C@@H](Cc1c[nH]cn1)C(=O)N[C@@H](CC(N)=O)C(=O)N[C@@H](Cc1ccccc1)C(=O)O)C(C)C)C(C)C` [TP(PTH(1-34)), teriparatide], the “time within which serum calcium levels are elevated” value is reported as no more than 2 h and the “time within which serum calcium restores to normal” value is reported as no more than 6 h.

Reference: patent EP4763868A1, “RECOMBINANT PTH FUSION PROTEIN, CONSTRUCTION METHOD THEREFOR, AND APPLICATION THEREOF” (KANGZHONG (GUANGDONG) INC., priority 2024, dated 2025)
